A short description of data set [1]: Rat muscle experiment: cetrorelix content in the plasma. Format: in vivo. An excerpt: (§1) In the further rat muscle experiments shown in Table 9, in addition to the residual content in the muscle, the cetrorelix content in the plasma was additionally determined.
Data set [2] in a line: Rat animal experiment: cetrorelix residual content in the muscle 168 h after injection. Format: in vivo. The method, then:
After reconstitution of these lyophilizates, the solutions (2.5 mg/ml of cetrorelix) are investgated in the following tests for aggregate formation and release behaviour: • Polarization microscopy (pol. mic.): days without aggregation. • Filterability in %: • Cetrorelix solutions are prepared according to a standardized procedure and filtered through 0.22 μm or 0.45 μm filters by means of centrifugation. The concentration of cetrorelix in the filtrate is determined by HPLC and indicated as a % value, based on the starting concentration before filtration (filterability in %). • in-vitro release form (RRS, release in Ringer's solution): • % released after 1 h and after 6 h. • The in-vitro release behaviour is determined at 37° C. in a flow procedure using Ringer's solution as medium. The concentration measurement is carried out by HPLC. Cetrorelix samples, corresponding to 10 mg of cetrorelix base, are weighed into the flow cell, mixed with 4 ml of water and stirred for 10 min.
as §1

[3] abbreviates: dose 1.5 mg/kg, inj. soln 3 mg/ml.
[4] abbreviates: dose 3.0 mg/kg, inj. soln 15 mg/ml.

Turning to Lactate, the “Cetrorelix content in the plasma, % of the dose” value is on record as 67.1 % of the dose in data set [1] (setting [3]) and 72.1 % of the dose in data set [1] (setting [4]). For the same substance, the “Cetrorelix content in the muscle (168 h), % of the dose” value in data set [2] (setting [3]) is 30.7 % of the dose; in data set [2] (setting [4]), 33.2 % of the dose.
